The nature of the series: in vivo. Conditions: rat, rats.

A word on the LD50: it is the dose at which mortality reaches 50%.

The compound `COCCOc1c(OC)cc(Cc2cnc(N)nc2N)cc1OC` [substance B, 2,4-diamino-5-(3',5'-dimethoxy-4'-methyldioxyethylene-benzyl)-pyrimidine] gave an LD50 of 1360 mg/kg.

These data come from US3992379A, “4-Alkyldioxyalkylene-5-benzylpyrimidines” (Ludwig Heumann & Co. GmbH, priority 1973, dated 1976).
